# Test results reported in patent US12507703B2, “Methods, devices and compositions for preserving human milk” (The Trustees of Princeton University, priority 2023, dated 2025).
# Test system: lipase
# Assay: Lipase/lipolysis assay (EnzChek Lipase Substrate, quenched BODIPY-fatty acid conjugate) on stored human milk; note: test concentration or dose not given here
substance,measurement,value
Lactate,Lipase (RFU),970.5105 RFU
